The source of these data is US7405223B2, “Treating allergic and inflammatory conditions” (priority 2000, dated 2008).

With `Clc1ccc2c(c1)CCc1cccnc1C2=C1CCNCC1` [desloratadine], where the note is “7.5 mg once daily, occurred exclusively in women of both races”, the “most frequently reported adverse event” value is listed as “Headache”. In addition, the safety and tolerability entry (7.5 mg orally once daily for 14 days) was “safe and well tolerated”.
